The target in the assay is Human cMet (Homo sapiens (Human), UniProt P08581). In words: cMet enzyme inhibition assay (Reaction Biology Corporation). It counts as biochemical. Particulars: poly[Glu:Tyr] (4:1) 0.2 mg/ml, ATP 10 μM; read-out: Inhibitory Activities IC50, cMet.

Sequences of proteins named here, by UniProt entry; tags and fusion partners are left off. Residues count along the entry.
UniProt P08581, 25-1390: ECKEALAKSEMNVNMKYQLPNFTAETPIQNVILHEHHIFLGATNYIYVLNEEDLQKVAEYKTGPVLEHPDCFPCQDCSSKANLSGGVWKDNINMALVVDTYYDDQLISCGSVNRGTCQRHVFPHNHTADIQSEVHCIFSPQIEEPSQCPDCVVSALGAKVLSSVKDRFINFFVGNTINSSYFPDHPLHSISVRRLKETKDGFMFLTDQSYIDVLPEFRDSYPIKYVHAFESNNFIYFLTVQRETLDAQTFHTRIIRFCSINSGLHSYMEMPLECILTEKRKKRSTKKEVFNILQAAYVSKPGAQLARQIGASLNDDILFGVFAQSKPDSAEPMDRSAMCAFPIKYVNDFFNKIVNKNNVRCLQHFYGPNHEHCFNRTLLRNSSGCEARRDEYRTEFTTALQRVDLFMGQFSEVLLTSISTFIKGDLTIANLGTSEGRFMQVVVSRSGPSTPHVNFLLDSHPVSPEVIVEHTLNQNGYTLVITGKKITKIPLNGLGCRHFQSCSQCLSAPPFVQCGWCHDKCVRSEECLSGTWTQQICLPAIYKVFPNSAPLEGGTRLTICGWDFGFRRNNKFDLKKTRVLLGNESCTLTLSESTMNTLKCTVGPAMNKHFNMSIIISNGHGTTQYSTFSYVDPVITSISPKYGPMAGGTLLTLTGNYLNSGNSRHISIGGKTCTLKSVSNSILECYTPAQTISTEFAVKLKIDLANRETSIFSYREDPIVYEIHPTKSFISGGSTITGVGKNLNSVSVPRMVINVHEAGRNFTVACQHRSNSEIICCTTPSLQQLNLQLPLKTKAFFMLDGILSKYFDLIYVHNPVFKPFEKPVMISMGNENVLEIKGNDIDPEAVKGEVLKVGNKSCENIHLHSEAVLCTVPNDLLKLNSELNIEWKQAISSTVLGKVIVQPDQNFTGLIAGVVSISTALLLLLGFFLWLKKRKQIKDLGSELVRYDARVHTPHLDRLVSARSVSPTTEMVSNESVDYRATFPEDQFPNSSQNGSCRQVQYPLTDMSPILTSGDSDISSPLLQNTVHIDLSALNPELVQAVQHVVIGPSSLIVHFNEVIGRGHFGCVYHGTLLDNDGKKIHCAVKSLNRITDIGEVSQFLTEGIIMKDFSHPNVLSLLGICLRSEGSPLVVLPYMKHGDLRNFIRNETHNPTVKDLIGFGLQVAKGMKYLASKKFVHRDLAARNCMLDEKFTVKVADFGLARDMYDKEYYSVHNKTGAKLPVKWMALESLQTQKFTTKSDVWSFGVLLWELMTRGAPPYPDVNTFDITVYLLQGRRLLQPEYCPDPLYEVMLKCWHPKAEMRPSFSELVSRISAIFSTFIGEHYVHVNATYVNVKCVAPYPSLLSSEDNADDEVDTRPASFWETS

On to `C[C@@H](Oc1cc(-c2cnn(C3CC4(CNC4)C3)c2)cnc1N)c1c(Cl)ccc(F)c1Cl` [Example 2, (R)-5-(1-(2-azaspiro[3.3]heptan-6-yl)-1H-pyrazol-4-yl)-3-(1-(2,6-dichloro-3-fluorophenyl)ethoxy)pyridin-2-amine], for which the IC50 – broadly, the midpoint of a concentration-inhibition curve – stood at 6.32 nM.

The values above are taken from patent US9226923B2, “Spirocyclic molecules as protein kinase inhibitors” (Nanjing Allgen Pharma Co. Ltd., priority 2011, dated 2016).
